Publication PMC3176258, “A genomic biomarker signature can predict skin sensitizers using a cell-based in vitro alternative to animal tests” (BMC Genomics, 2011)

Key:
[1] = tested on: mice; conditions: sensitizing potency category according to LLNA; ref (14, 15, 45-48); cited from earlier work
[2] = tested on: MUTZ-3 cells; assay: Cytotoxicity by propidium iodide, relative viability; conditions: concentration yielding 90% relative viability

Substance: Isoeugenol
- Potency [1]: Moderate [47]
- Rv90 [2]: 300 µM
